In paper PMC7084345, “Differential Inhibitory Actions of Multitargeted Tyrosine Kinase Inhibitors on Different Ionic Current Types in Cardiomyocytes” (International Journal of Molecular Sciences, 2020) one finds IC50 data, which are given here for one compound.

This test deals with T1, KV7.1 (KCNQ1) channel, IK(S) (Rattus norvegicus, UniProt Q9Z0N7).
T1 construct: native IK(S) in H9c2 cells
T1 sequence (Q9Z0N7 1-669): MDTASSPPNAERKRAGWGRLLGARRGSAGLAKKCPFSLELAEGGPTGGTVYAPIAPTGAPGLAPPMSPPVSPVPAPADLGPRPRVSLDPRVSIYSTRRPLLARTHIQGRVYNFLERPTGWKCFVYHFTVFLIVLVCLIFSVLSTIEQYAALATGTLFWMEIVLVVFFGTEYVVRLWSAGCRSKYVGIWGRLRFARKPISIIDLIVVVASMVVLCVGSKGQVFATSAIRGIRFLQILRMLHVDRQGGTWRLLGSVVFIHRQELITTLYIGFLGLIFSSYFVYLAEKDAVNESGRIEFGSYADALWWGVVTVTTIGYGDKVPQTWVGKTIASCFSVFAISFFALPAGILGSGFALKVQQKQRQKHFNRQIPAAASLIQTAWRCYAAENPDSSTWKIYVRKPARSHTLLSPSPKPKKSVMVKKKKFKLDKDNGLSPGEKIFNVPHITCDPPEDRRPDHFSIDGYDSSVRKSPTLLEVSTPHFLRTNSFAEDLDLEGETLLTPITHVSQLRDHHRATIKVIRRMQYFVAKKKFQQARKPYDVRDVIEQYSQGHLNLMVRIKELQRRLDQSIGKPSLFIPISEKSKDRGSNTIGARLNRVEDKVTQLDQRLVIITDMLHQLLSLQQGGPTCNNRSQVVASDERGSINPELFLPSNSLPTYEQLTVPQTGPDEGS
Kind of test: whole-cell patch clamp of native IK(S) in H9c2 cells. Format: cell-based.

The compound `CNC(=O)c1cc(Oc2ccc(NC(=O)Nc3ccc(Cl)c(C(F)(F)F)c3)cc2)ccn1` [SOR, sorafenib] had an IC50 of 1.69 µM.
